The values that follow come from ChEMBL document CHEMBL5518240 (J Med Chem, 2024).

Chains of the proteins cited; added tags and fusions are not shown.
UniProt Q09472, whole entry: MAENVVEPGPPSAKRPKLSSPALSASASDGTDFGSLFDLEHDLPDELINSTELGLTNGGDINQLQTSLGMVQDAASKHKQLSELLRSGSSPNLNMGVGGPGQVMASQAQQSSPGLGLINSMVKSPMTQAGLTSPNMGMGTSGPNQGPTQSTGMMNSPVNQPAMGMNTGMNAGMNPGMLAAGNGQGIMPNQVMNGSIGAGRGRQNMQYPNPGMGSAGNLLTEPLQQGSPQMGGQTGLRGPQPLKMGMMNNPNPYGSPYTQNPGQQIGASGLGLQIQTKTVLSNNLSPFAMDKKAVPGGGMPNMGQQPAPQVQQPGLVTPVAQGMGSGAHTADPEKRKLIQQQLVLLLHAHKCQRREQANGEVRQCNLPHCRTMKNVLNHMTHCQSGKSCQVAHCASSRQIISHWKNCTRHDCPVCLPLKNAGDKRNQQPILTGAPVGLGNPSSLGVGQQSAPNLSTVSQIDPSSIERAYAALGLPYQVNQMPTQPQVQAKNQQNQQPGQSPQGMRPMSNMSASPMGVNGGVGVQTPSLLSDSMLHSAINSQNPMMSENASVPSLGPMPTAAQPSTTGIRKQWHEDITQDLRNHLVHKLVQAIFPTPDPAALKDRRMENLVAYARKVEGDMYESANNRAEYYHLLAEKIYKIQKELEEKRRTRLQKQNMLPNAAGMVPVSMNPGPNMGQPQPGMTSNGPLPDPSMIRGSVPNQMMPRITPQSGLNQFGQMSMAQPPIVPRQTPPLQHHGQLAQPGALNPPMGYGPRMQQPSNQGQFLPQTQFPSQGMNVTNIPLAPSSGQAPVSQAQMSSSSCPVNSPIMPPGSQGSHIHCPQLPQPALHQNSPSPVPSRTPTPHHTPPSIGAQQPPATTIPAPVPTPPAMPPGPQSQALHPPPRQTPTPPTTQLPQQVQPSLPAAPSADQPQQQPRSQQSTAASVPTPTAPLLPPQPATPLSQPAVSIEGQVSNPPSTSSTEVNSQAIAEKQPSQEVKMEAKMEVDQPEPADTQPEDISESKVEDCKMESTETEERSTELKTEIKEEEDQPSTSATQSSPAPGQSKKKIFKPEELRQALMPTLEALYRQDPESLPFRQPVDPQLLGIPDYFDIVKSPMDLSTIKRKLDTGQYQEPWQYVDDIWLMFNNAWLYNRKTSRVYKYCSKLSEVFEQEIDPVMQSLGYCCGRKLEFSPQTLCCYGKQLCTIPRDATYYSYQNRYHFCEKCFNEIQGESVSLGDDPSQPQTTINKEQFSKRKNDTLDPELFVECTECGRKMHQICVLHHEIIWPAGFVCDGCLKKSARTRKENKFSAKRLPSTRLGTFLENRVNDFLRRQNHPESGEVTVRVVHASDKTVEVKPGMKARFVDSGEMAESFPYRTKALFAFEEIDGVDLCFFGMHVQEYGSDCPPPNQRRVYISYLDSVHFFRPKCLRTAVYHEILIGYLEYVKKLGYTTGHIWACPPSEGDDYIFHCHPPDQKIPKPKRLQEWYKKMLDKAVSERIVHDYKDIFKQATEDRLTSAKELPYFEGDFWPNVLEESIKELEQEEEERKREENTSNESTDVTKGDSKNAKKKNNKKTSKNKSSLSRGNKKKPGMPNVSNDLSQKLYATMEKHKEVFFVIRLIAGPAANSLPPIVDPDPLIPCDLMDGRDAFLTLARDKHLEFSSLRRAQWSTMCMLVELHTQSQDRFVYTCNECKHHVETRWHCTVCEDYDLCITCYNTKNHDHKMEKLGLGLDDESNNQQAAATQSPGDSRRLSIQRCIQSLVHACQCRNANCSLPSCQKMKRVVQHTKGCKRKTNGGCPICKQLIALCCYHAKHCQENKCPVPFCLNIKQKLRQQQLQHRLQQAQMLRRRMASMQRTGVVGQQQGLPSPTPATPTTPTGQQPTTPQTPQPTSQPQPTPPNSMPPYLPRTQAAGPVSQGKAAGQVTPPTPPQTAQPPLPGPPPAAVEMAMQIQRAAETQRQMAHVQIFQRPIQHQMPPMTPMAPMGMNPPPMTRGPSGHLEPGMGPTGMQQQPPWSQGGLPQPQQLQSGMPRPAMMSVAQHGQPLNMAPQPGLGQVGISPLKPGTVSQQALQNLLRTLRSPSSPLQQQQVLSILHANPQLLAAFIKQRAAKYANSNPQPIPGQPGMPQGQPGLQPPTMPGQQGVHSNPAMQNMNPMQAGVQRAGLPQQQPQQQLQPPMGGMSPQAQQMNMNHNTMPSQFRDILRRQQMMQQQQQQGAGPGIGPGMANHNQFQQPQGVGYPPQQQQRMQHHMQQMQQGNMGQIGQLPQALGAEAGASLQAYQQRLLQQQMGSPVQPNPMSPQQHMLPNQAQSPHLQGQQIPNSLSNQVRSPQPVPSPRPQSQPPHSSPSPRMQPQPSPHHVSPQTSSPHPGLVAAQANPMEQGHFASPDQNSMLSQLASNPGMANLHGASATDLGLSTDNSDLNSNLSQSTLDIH

SMILES strings stand for the structures.

The target in the assay is Histone acetyltransferase p300 (Homo sapiens, UniProt Q09472). Kind of assay: Binding affinity to p300 (unknown origin) by SPR assay. For orientation: In SPR one partner is held on a chip, and binding of the other changes the refractive index at the surface.

By Kd is commonly meant a measure of binding affinity in units of concentration. Regarding `CO[C@H]1CC[C@H](n2c([C@@H]3CCCC(=O)N3c3ccc(F)c(F)c3)nc3cc(-c4c(C)noc4C)ccc32)CC1` [INOBRODIB], the Kd was 1.7 nM.
